This experiment relates to in vivo angiogenesis, blood vessel count. Nature of the experiment: reduction of blood vessel formation in vivo – HTS, in vivo study (AID 732).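 Further: zebrafish embryos dosed at one day post fertilization; 0% = reference inhibitor and 100% = plate mean.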 The conditions noted are these: hits give low values;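 tested at 30 µM in the well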.

Calls of active or inactive are those of the source. How the calls were made is not given here.

Turning to `N#[O+].[C-]#N.[C-]#N.[C-]#N.[C-]#N.[C-]#N.[Fe+2].[Na+].[Na+]`, the vessel count % control was inactive: 77%.

(Values after PubChem BioAssay AID732 (Emory University Molecular Libraries Screening Center, 2007).)
